# Test results taken from paper PMC12678819, “Targeting bacterial kinases as a strategy to counteract antibiotic resistance” (2025).
# By UniProt entry, the sequences of proteins in these tests, tags left out. Where a name states a change or a piece, a line headed by the entry shows the natural chain unless it says otherwise. Residues count along the entry.
# UniProt P00519, 242-493 limits assumed: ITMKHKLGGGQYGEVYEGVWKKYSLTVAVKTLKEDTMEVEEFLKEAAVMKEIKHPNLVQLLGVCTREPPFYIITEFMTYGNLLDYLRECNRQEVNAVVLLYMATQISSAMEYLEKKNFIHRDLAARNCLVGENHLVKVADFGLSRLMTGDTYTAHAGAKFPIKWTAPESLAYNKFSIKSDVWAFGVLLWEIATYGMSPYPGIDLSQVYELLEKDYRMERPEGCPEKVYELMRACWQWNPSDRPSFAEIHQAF
# UniProt Q9Y243, 148-479 limits assumed: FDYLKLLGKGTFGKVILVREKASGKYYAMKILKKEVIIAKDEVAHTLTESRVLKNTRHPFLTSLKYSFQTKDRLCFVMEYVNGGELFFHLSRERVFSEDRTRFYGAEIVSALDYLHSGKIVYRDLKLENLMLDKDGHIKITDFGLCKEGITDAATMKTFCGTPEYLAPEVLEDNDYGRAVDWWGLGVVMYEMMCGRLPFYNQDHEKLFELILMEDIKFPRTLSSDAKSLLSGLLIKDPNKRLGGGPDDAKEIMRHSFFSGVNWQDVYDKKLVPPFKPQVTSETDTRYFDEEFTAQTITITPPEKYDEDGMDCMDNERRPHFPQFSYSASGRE
# UniProt Q96GD4, 77-327 limits assumed: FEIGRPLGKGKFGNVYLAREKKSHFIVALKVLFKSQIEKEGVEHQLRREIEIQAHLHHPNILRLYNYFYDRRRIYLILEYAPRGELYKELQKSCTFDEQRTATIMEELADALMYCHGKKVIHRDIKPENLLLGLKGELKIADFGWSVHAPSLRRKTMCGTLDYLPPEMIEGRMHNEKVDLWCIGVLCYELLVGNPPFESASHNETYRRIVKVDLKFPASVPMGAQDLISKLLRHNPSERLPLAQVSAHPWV
# UniProt O14965, 122-403 limits assumed: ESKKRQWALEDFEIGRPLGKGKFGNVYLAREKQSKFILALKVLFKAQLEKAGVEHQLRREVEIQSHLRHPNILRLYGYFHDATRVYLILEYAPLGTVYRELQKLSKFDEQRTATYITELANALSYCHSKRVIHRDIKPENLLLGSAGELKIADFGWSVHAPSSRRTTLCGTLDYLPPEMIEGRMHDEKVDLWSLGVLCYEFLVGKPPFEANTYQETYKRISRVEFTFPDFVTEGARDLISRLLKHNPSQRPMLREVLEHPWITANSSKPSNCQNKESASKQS
# UniProt P51813, 417-675 limits assumed: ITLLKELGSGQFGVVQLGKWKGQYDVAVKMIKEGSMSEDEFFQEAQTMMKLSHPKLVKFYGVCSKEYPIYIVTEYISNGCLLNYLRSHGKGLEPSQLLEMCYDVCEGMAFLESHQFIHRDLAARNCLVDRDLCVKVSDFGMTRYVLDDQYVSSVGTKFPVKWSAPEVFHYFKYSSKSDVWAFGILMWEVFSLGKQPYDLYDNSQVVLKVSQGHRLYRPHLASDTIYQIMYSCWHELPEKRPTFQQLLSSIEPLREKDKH
# UniProt Q92630, 222-535 limits assumed: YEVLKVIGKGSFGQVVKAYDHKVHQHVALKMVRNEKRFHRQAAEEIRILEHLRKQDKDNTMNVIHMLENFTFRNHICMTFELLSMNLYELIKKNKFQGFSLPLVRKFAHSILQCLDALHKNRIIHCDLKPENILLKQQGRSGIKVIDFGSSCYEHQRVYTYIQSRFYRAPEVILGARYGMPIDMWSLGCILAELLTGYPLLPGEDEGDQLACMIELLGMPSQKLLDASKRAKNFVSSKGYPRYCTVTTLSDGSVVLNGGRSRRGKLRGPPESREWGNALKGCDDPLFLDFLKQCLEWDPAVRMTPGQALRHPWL
# UniProt P54762, 619-882 limits assumed: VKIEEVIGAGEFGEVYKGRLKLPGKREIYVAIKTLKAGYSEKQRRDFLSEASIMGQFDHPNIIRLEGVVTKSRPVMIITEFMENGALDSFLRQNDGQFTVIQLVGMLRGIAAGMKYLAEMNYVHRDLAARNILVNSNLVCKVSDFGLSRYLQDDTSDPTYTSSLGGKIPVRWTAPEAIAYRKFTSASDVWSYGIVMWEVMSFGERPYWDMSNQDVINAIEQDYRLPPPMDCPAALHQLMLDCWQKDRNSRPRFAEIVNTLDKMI
# UniProt P54753, 633-896 limits assumed: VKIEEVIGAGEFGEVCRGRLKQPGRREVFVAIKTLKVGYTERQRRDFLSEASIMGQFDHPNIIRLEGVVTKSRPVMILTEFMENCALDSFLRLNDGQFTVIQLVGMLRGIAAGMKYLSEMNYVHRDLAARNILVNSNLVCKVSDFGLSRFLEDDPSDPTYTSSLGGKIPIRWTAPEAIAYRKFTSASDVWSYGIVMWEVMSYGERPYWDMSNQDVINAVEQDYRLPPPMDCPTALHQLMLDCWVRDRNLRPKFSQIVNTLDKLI
# UniProt P29317, 613-875 limits assumed: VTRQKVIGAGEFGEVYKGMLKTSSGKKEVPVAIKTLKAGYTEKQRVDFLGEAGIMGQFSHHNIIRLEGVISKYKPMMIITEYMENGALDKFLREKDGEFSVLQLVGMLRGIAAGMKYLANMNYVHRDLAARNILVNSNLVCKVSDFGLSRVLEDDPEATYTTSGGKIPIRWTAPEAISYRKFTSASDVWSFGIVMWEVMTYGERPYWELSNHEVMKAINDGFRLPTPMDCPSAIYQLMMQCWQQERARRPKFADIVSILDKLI
# UniProt P21802, 458-768 limits assumed: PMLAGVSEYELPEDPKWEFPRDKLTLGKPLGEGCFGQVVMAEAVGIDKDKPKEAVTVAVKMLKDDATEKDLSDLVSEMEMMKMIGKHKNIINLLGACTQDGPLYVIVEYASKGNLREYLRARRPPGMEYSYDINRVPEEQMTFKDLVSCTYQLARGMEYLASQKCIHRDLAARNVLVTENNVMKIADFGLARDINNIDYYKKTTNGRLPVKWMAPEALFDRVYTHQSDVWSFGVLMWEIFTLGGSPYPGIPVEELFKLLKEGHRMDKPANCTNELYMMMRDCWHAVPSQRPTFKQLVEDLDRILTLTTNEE
# UniProt P45985, 102-367 limits assumed: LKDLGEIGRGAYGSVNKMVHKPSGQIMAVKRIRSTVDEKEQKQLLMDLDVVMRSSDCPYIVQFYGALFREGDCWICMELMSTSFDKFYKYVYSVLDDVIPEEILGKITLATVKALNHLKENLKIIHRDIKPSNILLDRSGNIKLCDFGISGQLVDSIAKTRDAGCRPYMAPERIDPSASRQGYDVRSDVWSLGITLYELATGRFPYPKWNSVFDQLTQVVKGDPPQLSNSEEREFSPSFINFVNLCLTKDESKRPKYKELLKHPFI
# UniProt Q12866, 587-858 limits assumed: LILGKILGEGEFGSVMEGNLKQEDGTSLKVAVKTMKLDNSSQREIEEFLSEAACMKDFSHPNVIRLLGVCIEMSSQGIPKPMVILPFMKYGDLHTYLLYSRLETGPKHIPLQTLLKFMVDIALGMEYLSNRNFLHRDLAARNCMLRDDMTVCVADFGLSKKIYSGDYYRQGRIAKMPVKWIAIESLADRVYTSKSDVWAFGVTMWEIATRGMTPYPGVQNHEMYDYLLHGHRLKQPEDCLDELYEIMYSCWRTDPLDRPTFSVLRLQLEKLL
# UniProt O75582, 426-687 limits assumed: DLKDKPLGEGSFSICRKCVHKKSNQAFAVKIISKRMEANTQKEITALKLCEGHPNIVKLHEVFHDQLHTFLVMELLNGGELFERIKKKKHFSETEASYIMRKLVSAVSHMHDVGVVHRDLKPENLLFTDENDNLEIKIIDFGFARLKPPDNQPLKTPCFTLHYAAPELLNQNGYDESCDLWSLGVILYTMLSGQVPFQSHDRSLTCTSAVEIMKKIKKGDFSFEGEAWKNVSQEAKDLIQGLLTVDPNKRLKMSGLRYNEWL
# UniProt Q13153, 249-545 limits assumed: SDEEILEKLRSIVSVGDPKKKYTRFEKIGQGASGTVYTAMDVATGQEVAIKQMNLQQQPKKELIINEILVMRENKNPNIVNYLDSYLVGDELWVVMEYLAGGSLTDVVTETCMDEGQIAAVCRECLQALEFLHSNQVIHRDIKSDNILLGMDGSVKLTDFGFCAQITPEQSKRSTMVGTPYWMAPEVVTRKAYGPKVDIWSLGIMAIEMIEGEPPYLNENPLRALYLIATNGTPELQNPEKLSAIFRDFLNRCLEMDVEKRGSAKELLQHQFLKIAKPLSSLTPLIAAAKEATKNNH
# UniProt Q00536, 163-478 limits assumed: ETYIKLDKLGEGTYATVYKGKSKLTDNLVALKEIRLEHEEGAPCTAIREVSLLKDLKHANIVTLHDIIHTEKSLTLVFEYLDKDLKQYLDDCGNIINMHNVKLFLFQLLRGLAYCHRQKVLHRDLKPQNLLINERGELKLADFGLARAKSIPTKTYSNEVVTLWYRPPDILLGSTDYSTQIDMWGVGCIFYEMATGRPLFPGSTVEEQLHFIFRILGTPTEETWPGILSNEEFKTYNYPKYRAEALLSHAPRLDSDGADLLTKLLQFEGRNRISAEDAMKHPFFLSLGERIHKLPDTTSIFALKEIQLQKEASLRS
# UniProt P15735, 6-293 limits assumed: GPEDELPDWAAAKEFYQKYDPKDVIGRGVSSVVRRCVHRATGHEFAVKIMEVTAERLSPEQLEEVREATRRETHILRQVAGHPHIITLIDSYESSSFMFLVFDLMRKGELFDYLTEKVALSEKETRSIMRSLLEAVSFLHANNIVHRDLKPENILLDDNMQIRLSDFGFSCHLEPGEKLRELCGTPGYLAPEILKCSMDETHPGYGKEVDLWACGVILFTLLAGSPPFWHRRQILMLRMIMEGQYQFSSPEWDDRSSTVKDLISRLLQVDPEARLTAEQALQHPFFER
# UniProt Q96SB4, 80-653 limits assumed: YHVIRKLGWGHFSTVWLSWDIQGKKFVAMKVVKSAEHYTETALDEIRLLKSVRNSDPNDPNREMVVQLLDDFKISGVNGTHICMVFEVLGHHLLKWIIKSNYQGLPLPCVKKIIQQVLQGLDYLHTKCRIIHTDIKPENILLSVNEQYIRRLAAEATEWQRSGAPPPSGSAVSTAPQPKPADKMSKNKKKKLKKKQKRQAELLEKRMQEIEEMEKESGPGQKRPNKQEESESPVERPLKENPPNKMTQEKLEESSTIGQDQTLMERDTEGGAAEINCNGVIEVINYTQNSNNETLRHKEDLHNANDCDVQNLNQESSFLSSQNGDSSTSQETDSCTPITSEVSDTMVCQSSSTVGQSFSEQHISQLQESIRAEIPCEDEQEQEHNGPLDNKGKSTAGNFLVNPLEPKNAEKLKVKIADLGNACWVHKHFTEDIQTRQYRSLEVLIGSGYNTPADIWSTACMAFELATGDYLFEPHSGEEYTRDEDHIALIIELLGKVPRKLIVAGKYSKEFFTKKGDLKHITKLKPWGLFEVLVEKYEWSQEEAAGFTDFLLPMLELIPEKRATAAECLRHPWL
# UniProt Q9UKI8, 456-734 limits assumed: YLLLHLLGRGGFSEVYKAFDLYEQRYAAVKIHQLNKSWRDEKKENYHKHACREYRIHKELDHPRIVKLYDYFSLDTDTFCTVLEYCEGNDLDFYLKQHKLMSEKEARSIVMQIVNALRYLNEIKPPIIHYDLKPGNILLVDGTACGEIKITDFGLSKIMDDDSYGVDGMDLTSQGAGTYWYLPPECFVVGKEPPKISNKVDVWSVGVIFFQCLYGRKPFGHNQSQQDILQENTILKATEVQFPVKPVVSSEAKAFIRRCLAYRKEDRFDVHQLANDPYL
# UniProt P33981, 525-791 limits assumed: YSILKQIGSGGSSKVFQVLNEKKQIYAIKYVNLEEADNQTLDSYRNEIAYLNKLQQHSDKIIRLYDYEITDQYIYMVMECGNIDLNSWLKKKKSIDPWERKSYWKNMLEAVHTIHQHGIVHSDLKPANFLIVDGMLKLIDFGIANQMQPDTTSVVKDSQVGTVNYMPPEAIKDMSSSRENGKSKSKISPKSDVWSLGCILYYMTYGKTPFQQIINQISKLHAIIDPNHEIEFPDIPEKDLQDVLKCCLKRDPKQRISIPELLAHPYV
# UniProt Q16539, whole entry, looked up: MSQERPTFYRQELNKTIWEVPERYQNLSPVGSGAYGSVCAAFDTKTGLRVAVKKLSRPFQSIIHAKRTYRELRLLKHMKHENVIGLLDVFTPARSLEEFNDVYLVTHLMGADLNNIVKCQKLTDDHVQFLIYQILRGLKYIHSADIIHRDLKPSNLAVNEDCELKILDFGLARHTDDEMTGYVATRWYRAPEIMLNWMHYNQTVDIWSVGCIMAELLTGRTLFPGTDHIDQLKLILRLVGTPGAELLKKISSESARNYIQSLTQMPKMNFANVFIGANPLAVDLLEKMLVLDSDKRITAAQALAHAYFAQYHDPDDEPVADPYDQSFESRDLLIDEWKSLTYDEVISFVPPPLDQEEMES
# UniProt O15264: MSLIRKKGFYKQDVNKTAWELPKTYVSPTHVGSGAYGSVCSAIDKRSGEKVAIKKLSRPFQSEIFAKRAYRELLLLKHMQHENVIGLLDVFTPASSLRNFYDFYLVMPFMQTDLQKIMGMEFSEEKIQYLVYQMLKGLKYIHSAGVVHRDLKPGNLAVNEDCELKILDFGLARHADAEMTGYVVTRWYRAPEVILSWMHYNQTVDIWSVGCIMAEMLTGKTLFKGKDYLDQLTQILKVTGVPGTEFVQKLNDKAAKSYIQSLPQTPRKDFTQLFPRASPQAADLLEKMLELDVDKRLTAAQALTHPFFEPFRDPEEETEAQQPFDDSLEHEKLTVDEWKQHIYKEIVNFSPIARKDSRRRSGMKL
# What was measured:
# Experiment in all cases: DSF kinase panel
# Details in all cases: 10 μM
# [1] = target: ABL1 (Homo sapiens, UniProt P00519)
# [2] = target: ATK3 (Homo sapiens, UniProt Q9Y243)
# [3] = target: AURKB (Homo sapiens, UniProt Q96GD4)
# [4] = target: AurA (Homo sapiens, UniProt O14965)
# [5] = target: BMX (Homo sapiens, UniProt P51813)
# [6] = target: CAMK2B (Homo sapiens, UniProt Q13554)
# [7] = target: CDK2 (Homo sapiens, UniProt P24941)
# [8] = target: CHK2 (Homo sapiens, UniProt O96017)
# [9] = target: CSNK1E (Homo sapiens, UniProt P49674)
# [10] = target: DAPK1 (Homo sapiens, UniProt P53355)
# [11] = target: DAPK3 (Homo sapiens, UniProt O43293)
# [12] = target: DMPK1 (Homo sapiens, UniProt Q09013)
# [13] = target: DYRK2 (Homo sapiens, UniProt Q92630)
# [14] = target: EPHB1 (Homo sapiens, UniProt P54762)
# [15] = target: EPHB3 (Homo sapiens, UniProt P54753)
# [16] = target: EphA2 (Homo sapiens, UniProt P29317)
# [17] = target: Erk2 (Homo sapiens, UniProt P28482)
# [18] = target: FGFR1 (Homo sapiens, UniProt P11362)
# [19] = target: FGFR2 (Homo sapiens, UniProt P21802)
# [20] = target: HIPK2 (Homo sapiens, UniProt Q9H2X6)
# [21] = target: JNK2 (Homo sapiens, UniProt P45984)
# [22] = target: MAP2K1 (Homo sapiens, UniProt Q02750)
# [23] = target: MAP3K5 (Homo sapiens, UniProt Q99683)
# [24] = target: MEK4 (Homo sapiens, UniProt P45985)
# [25] = target: MER (Homo sapiens, UniProt Q12866)
# [26] = target: MSK1_b (Homo sapiens, UniProt O75582)
# [27] = target: MST1 (Homo sapiens, UniProt Q13043)
# [28] = target: MST2 (Homo sapiens, UniProt Q13188)
# [29] = target: PAK1 (Homo sapiens, UniProt Q13153)
# [30] = target: PCTAIRE1 (Homo sapiens, UniProt Q00536)
# [31] = target: PHKg2 (Homo sapiens, UniProt P15735)
# [32] = target: PIM3 (Homo sapiens, UniProt Q86V86)
# [33] = target: SRPK1 (Homo sapiens, UniProt Q96SB4)
# [34] = target: TLK1 (Homo sapiens, UniProt Q9UKI8)
# [35] = target: TTK (Homo sapiens, UniProt P33981)
# [36] = target: ULK3 (Homo sapiens, UniProt Q6PHR2)
# [37] = target: p38a (Homo sapiens, UniProt Q16539)
# [38] = target: p38d (Homo sapiens, UniProt O15264)
Compound,ΔTm ABL1 [1],ΔTm ATK3 [2],ΔTm AURKB [3],ΔTm AurA [4],ΔTm BMX [5],ΔTm CAMK2B [6],ΔTm CDK2 [7],ΔTm CHK2 [8],ΔTm CSNK1E [9],ΔTm DAPK1 [10],ΔTm DAPK3 [11],ΔTm DMPK1 [12],ΔTm DYRK2 [13],ΔTm EPHB1 [14],ΔTm EPHB3 [15],ΔTm EphA2 [16],ΔTm Erk2 [17],ΔTm FGFR1 [18],ΔTm FGFR2 [19],ΔTm HIPK2 [20],further results
C[C@@H](O)Cn1cc(-c2c(Cl)cnc3[nH]ccc23)nn1,1.7 °C,0.2 °C,5.8 °C,7.0 °C,0.0 °C,0.0 °C,1.3 °C,2.2 °C,3.6 °C,2.5 °C,5.5 °C,1.6 °C,4.7 °C,0.3 °C,-1.6 °C,-0.4 °C,0.5 °C,1.4 °C,-0.1 °C,1.1 °C,ΔTm JNK2 [21]: 0.3 °C; ΔTm MAP2K1 [22]: 0.2 °C; ΔTm MAP3K5 [23]: 7.1 °C; ΔTm MEK4 [24]: 4.5 °C; ΔTm MER [25]: 0.0 °C; ΔTm MSK1_b [26]: 7.2 °C; ΔTm MST1 [27]: 2.0 °C; ΔTm MST2 [28]: 2.3 °C; ΔTm PAK1 [29]: -0.9 °C; ΔTm PCTAIRE1 [30]: 0.1 °C; ΔTm PHKg2 [31]: 0.9 °C; ΔTm PIM3 [32]: -0.4 °C; ΔTm SRPK1 [33]: -0.1 °C; ΔTm TLK1 [34]: -1.1 °C; ΔTm TTK [35]: 1.7 °C; ΔTm ULK3 [36]: 6.3 °C; ΔTm p38a [37]: -0.6 °C; ΔTm p38d [38]: 0.6 °C
C[C@H](O)Cn1cc(-c2c(Cl)cnc3[nH]ccc23)nn1,1.7 °C,0.3 °C,6.0 °C,7.0 °C,0.1 °C,0.7 °C,1.5 °C,2.2 °C,2.8 °C,2.4 °C,4.6 °C,1.6 °C,3.9 °C,0.3 °C,1.3 °C,-0.4 °C,0.6 °C,1.6 °C,-0.1 °C,0.9 °C,ΔTm JNK2 [21]: 0.6 °C; ΔTm MAP2K1 [22]: 0.3 °C; ΔTm MAP3K5 [23]: 6.5 °C; ΔTm MEK4 [24]: 4.5 °C; ΔTm MER [25]: 0.4 °C; ΔTm MSK1_b [26]: 7.1 °C; ΔTm MST1 [27]: 2.7 °C; ΔTm MST2 [28]: 2.7 °C; ΔTm PAK1 [29]: -0.5 °C; ΔTm PCTAIRE1 [30]: 0.1 °C; ΔTm PHKg2 [31]: 1.4 °C; ΔTm PIM3 [32]: 0.9 °C; ΔTm SRPK1 [33]: 0.0 °C; ΔTm TLK1 [34]: -0.4 °C; ΔTm TTK [35]: 1.9 °C; ΔTm ULK3 [36]: 6.3 °C; ΔTm p38a [37]: -0.6 °C; ΔTm p38d [38]: 0.5 °C
